Earlier results on three compounds are cited in Sander's compilation of Henry's law constants.

The structures appear in SMILES notation.

A short description of the series: Henry solubility constant Hcp at 298.15 K (mol/(m3 Pa)). The following applies: cited value.
[1] abbreviates: reference: Burkholder et al. (2015).
The mark [2] stands for this setting: reference: Burkholder et al. (2019).
The mark [3] stands for this setting: reference: Sander et al. (2006).
Setting [4] is: reference: Sander et al. (2011).

With `CCCCOCCCC` [dibutyl ether], the “Henry solubility constant Hcp” value (reference: Brockbank (2013)) was 0.0021 and the “Henry solubility constant Hcp” value (reference: Pierotti et al. (1959)) was 0.0016.
Consider `CCC(C)O[N+](=O)[O-]` (configuration not stated) [2-butyl nitrate], for which the “Henry solubility constant Hcp” value by setting is: under setting [1], 0.0064; under setting [2], 0.0064; under setting [3], 0.0064; under setting [4], 0.0064.
Consider `CCl` [chloromethane], for which the “Henry solubility constant Hcp” value (reference: Brockbank (2013)) is 0.001; the “Henry solubility constant Hcp” value under setting [1] was 0.0011; the “Henry solubility constant Hcp” value under setting [2] was 0.001; the “Henry solubility constant Hcp” value (reference: Goldstein (1982)) was 0.00029; the “Henry solubility constant Hcp” value under setting [3] is 0.0013; the “Henry solubility constant Hcp” value under setting [4] is 0.0013.
